Ab-14 light chain CDR variants: yeast mating affinities

Reference: Engelhart et al. 2022, doi:10.1038/s41597-022-01779-4. File: FLAb, binding data.

Target: peptide PDVDLGDISGINAS, taken from heptad repeat 2 (HR2) of SARS-CoV-2 spike.

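Phage display of a naive human antibody library on the peptide gave the parent. Variants in AAYL50 differ from the parent at up to three CDR positions; double and triple changes were sampled at random. AlphaSeq pools MATa yeast showing the antibodies with MATalpha yeast showing the peptide. Binding brings cells together so that they mate, and sequencing counts the barcode pairs among the diploids. Each replicate has its own calibration line, from reference interactions of the BCL2 family. Mating was done three times.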

Each scFv is VH, the linker GGGGSGGGGSGGGGS, VL, as in the parent Ab-14, and differs from it in the CDRs of the light chain only.
VH: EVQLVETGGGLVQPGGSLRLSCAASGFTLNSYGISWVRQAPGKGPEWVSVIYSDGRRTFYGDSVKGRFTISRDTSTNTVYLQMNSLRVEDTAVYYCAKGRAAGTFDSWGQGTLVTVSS
VL: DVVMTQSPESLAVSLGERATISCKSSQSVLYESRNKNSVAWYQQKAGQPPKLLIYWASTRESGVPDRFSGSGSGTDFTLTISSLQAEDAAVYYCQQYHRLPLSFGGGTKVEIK

Substitutions are numbered in sequence along the VL above, starting at 1 (not Kabat). The read-out is the apparent dissociation constant on a log10 scale (nM): the lower, the stronger. Averages over replicates are reported, and they cover detected replicates only. An entry "no signal" has no value in the source: the pair was not observed among the diploids in any replicate. This suggests poor binding but is not conclusive. The list is sorted by this average, lowest first, undetected variants last. Background: pairings of library AAYL50 with three empty control strains gave a value in 18% of cases (median 4.19, 5th percentile 2.99). Values in that range, when seen in few replicates, are hard to tell from nonspecific mating. Also given: how often the same scFv was detected with the empty control strains. In this assay the parent's reference entry averaged 0.65; its copy inside this library read 1.68.

| changes | mean log10 Kd (nM) | replicates with signal | empty controls |
|---|---|---|---|
| S38N W56K R99W | 0.40 | 3/3 | 2/9 |
| E32N R34L L100I | 0.46 | 3/3 | 1/9 |
| L30G W56K S62G | 0.53 | 3/3 | 1/9 |
| S62P Y97C | 0.62 | 3/3 | 0/9 |
| W56Y A57G S58A | 0.87 | 3/3 | 1/9 |
| E32K R34D E61Q | 1.00 | 3/3 | 5/9 |
| N35A Q95C H98L | 1.06 | 3/3 | 2/9 |
| S25Q S33E T59Y | 1.12 | 3/3 | 0/9 |
| Y31T P101D | 1.21 | 3/3 | 4/9 |
| S26Q N35I | 1.25 | 3/3 | 0/9 |
| S33P Q95G P101E | 1.35 | 3/3 | 5/9 |
| L30A N37E E61L | 1.49 | 3/3 | 4/9 |
| S28G V29M | 1.57 | 3/3 | 2/9 |
| N35Q H98D | 1.70 | 3/3 | 7/9 |
| K36P S58C Q96M | 1.77 | 3/3 | 1/9 |
| S25G K36G N37G | 1.88 | 3/3 | 2/9 |
| S28A P101G L102Y | 2.01 | 3/3 | 0/9 |
| Y31T A57M Q96P | 2.06 | 3/3 | 5/9 |
| S25K E32H R34G | 2.34 | 3/3 | 0/9 |
| S26Q N35H N37C | 2.44 | 3/3 | 2/9 |
| A57E R60L P101I | 2.55 | 3/3 | 0/9 |
| K24E Y97N R99I | 2.60 | 3/3 | 1/9 |
| V29I N35K S38C | 2.62 | 3/3 | 2/9 |
| S38Q L102F | 2.84 | 1/3 | 2/9 |
| Q27P N37C L100G | 2.86 | 2/3 | 0/9 |
| S33W S58R P101A | 2.93 | 3/3 | 1/9 |
| S28T N37K W56A | 3.71 | 1/3 | 5/9 |
| R60T Q95S S103Y | 3.81 | 2/3 | 0/9 |
| E32R S62G P101G | 3.83 | 2/3 | 4/9 |
| S28T S62G Y97T | 3.90 | 1/3 | 3/9 |
| S26I V29F Q95N | 4.27 | 1/3 | 2/9 |

Continued, with the values leading:

| mean log10 Kd (nM) | replicates with signal | empty controls | changes |
|---|---|---|---|
| 4.33 | 2/3 | 1/9 | Q27N S38F S103L |
| 4.33 | 1/3 | 0/9 | S33M A57F L102H |
| 4.40 | 3/3 | 4/9 | T59R R60I Y97D |
| 4.45 | 2/3 | 2/9 | L30H R60L Q95W |
| 4.51 | 1/3 | 1/9 | S33K N35D V39F |
| 4.58 | 2/3 | 0/9 | V39Y S62I Q95G |
| 4.76 | 3/3 | 8/9 | Y31S R60H Q95Y |
| 4.78 | 2/3 | 1/9 | V39A A57Y L102Y |
| 4.82 | 2/3 | 2/9 | E32N N35P A40E |
| 4.93 | 2/3 | 1/9 | T59S Y97V P101S |
| 5.27 | 2/3 | 4/9 | L30S E32Y V39G |
| no signal | 0/3 | 0/9 | N37F S38N A40V |
| no signal | 0/3 | 0/9 | S38N A57D R99E |
| no signal | 0/3 | 0/9 | S26F E32Y Y97C |
| no signal | 0/3 | 1/9 | V29P W56D T59W |
| no signal | 0/3 | 1/9 | K24C E32R T59K |
| no signal | 0/3 | 2/9 | V39T E61K L100T |
| no signal | 0/3 | 4/9 | S28N A57F R99L |
| no signal | 0/3 | 1/9 | R34Q V39I Q95Y |
| no signal | 0/3 | 0/9 | A40H Y97V |
| no signal | 0/3 | 1/9 | S26F S28L S62A |
| no signal | 0/3 | 1/9 | S38M E61T R99C |
| no signal | 0/3 | 2/9 | R34A Q96F L102S |
| no signal | 0/3 | 0/9 | S33H V39E S58C |
| no signal | 0/3 | 0/9 | E32W S58F |
| no signal | 0/3 | 1/9 | E32H A57K Y97R |
| no signal | 0/3 | 0/9 | S38Y T59C S103W |
| no signal | 0/3 | 0/9 | V39W E61G Q95W |
| no signal | 0/3 | 1/9 | S28N Y31H A40T |
| no signal | 0/3 | 0/9 | Q27W R60T R99M |
| no signal | 0/3 | 0/9 | E32S K36S L100H |

Extract of 10 entries:

{"changes": "V29P W56D T59W", "mean log10 Kd (nM)": "no signal", "replicates with signal": "0/3", "empty controls": "1/9"}
{"changes": "S33K N35D V39F", "mean log10 Kd (nM)": "4.51", "replicates with signal": "1/3", "empty controls": "1/9"}
{"changes": "V39W E61G Q95W", "mean log10 Kd (nM)": "no signal", "replicates with signal": "0/3", "empty controls": "0/9"}
{"changes": "V39A A57Y L102Y", "mean log10 Kd (nM)": "4.78", "replicates with signal": "2/3", "empty controls": "1/9"}
{"changes": "Y31S R60H Q95Y", "mean log10 Kd (nM)": "4.76", "replicates with signal": "3/3", "empty controls": "8/9"}
{"changes": "E32S K36S L100H", "mean log10 Kd (nM)": "no signal", "replicates with signal": "0/3", "empty controls": "0/9"}
{"changes": "S28T N37K W56A", "mean log10 Kd (nM)": "3.71", "replicates with signal": "1/3", "empty controls": "5/9"}
{"changes": "T59S Y97V P101S", "mean log10 Kd (nM)": "4.93", "replicates with signal": "2/3", "empty controls": "1/9"}
{"changes": "T59R R60I Y97D", "mean log10 Kd (nM)": "4.40", "replicates with signal": "3/3", "empty controls": "4/9"}
{"changes": "L30A N37E E61L", "mean log10 Kd (nM)": "1.49", "replicates with signal": "3/3", "empty controls": "4/9"}